From PubChem BioAssay AID1224905 (ICCB-Longwood Screening Facility, Harvard Medical School, 2016)
Among all 210,000 compounds or so, about 880 (0.42%) were called active. For the sample, actives were picked, then their nearest neighbours and some compounds at random. Unmarked numbers belong to inactive results.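 The calls were made as follows: active = replicate mean at 85% of control or lower with very high polarization wells dropped (limit read from the data); inactive = the rest.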

Protein sequences, listed by entry. Tags and fused reporters are not part of them.
UniProt P08753, whole entry, looked up: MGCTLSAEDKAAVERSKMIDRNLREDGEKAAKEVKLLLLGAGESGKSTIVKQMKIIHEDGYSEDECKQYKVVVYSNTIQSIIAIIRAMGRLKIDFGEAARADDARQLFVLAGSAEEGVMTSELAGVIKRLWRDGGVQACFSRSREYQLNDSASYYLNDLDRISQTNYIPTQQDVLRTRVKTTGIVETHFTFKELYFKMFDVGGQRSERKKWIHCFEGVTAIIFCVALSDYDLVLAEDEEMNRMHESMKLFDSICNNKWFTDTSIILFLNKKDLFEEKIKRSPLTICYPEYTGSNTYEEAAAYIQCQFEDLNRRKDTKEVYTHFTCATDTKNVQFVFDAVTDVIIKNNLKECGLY

Target: Guanine nucleotide-binding protein G(i) subunit alpha-3 (Rattus norvegicus) (UniProt P08753)
Test: disruptors of GIV-Galphai3 protein-protein interaction – biochemical, fluorescence polarization, FITC-GIV GBA peptide, rat Galphai3, primary screen (AID 1224905)
Details: Galpha-i3/FITC-GIV peptide fluorescence polarization, 90 min; stronger effect = lower value; scaled: aluminum fluoride 0%, vehicle 100%

Question: Which percent of control (FP) does the source give for `COc1ccc(-c2ocnc2C(=O)O)cc1` here?
Answer: Its percent of control (FP) is 108%.

Question: `COc1ccc(N=Nc2c(-c3ccc(OC)cc3)[nH]oc2=O)cc1` was tested. Which percent of control (FP) did it give?
Answer: Its percent of control (FP) is 49% (active).

Question: `COc1cccc(N=Nc2c(O)[nH]c(=O)[nH]c2=O)c1` was tested. Which percent of control (FP) did it give?
Answer: Its percent of control (FP) is 100%.

Question: How did the percent of control (FP) turn out when `Cc1ccc(-c2nnc3ccccc3c2C(=O)Nc2ccc3c(c2)OCCO3)cc1` was run?
Answer: The percent of control (FP) was 101%.

Question: Which percent of control (FP) does the source give for `COC(=O)/C=C1\Nc2ccccc2SC1=O` here?
Answer: Its percent of control (FP) is 103%.

Question: With `O=C1c2ccccc2S(=O)(=O)N1CC(O)COc1ccc2ccccc2c1` (stereo not given) as the molecule, how does the percent of control (FP) read?
Answer: Its percent of control (FP) is 103%.

Question: For `Cn1c(NC(=O)c2ccccc2)nc2ccccc21`, which percent of control (FP) is on record?
Answer: The percent of control (FP) was 97.8%.

Question: `C/C(=N\c1nc2ccccc2n1C)c1cc(Cl)ccc1O` was tested. Which percent of control (FP) did it give?
Answer: Its percent of control (FP) is 49.3% (active).

Question: `Cn1c(=O)c(C(=O)NCCc2ccc(Cl)cc2)nc2ccccc21` was tested. Which percent of control (FP) did it give?
Answer: Its percent of control (FP) is 105%.

Question: With `Cn1cc(C(=O)Nc2ccc(Br)cc2)c2[nH]c(=O)n(-c3ccccc3)c(=O)c21` as the molecule, how does the percent of control (FP) read?
Answer: The percent of control (FP) was 101%.

Question: How did the percent of control (FP) turn out when `COc1ccc(NC(=O)c2nn(C)c3c2CSc2ccc(Cl)cc2-3)cc1OC` was run?
Answer: Its percent of control (FP) is 102%.

Question: For `COc1ccc(NC(=O)C2CCN(S(=O)(=O)c3cc4c(cc3C)NC(=O)CO4)CC2)cc1OC`, which percent of control (FP) is on record?
Answer: Its percent of control (FP) is 98%.

Question: How did the percent of control (FP) turn out when `O=S(=O)(c1ccccc1Cl)N1CCN(c2ncnc3c2nnn3-c2ccc(F)cc2)CC1` was run?
Answer: Its percent of control (FP) is 98.7%.

Question: `Cc1cc(C)c2c(N)c(-c3n[nH]c(=S)n3C)sc2n1` was tested. Which percent of control (FP) did it give?
Answer: The percent of control (FP) was -53.5% (active).

Question: For `Cc1cc(C)c2c(n1)sc1c(=O)n(C)cnc12`, which percent of control (FP) is on record?
Answer: The percent of control (FP) was 103%.

Question: `COc1ccc(-c2cc(-c3nc4c5sc6nc(C)cc(C)c6c5ncn4n3)[nH]n2)cc1` was tested. Which percent of control (FP) did it give?
Answer: The percent of control (FP) was 102%.

Question: With `Cc1ccc(N2C(=O)C3C4c5ccccc5C(C=O)(c5ccccc54)C3C2=O)c(Br)c1` (stereo not given) as the molecule, how does the percent of control (FP) read?
Answer: The percent of control (FP) was 123%.

Question: Which percent of control (FP) does the source give for `COCCNC(=O)c1ccccc1NC(=O)c1ccc(F)cc1` here?
Answer: Its percent of control (FP) is 104%.

Question: With `COC(=O)CN1C(c2ccccc2)=Nc2ccc(Br)cc2C1c1ccccc1` (stereo not given) as the molecule, how does the percent of control (FP) read?
Answer: The percent of control (FP) was 107%.

Question: For `COc1ccc(CNS(=O)(=O)c2ccc(F)c(C(=O)Nc3ccc(Br)cc3F)c2)cc1`, which percent of control (FP) is on record?
Answer: Its percent of control (FP) is 111%.

Question: How did the percent of control (FP) turn out when `Cc1nn(CC(=O)NCCc2c[nH]c3ccccc23)c(=O)c2noc(C)c12` was run?
Answer: Its percent of control (FP) is 98.7%.

Question: With `O=C(NCCc1c[nH]c2ccccc12)c1cc(=O)nc2sc(N3CCCC3)nn12` as the molecule, how does the percent of control (FP) read?
Answer: The percent of control (FP) was 106%.

Question: `N#C/C(=C/c1ccc(N2CCCCC2)o1)C(=O)NCCc1c[nH]c2ccccc12` was tested. Which percent of control (FP) did it give?
Answer: The percent of control (FP) was -90.3% (active).

Question: `CCCCN(CC)c1ncnc2ccc(C)cc12` was tested. Which percent of control (FP) did it give?
Answer: The percent of control (FP) was 101%.

Question: With `Cc1ccc2nc(/C(C#N)=C/c3ccccc3F)[nH]c2c1` as the molecule, how does the percent of control (FP) read?
Answer: Its percent of control (FP) is 113%.

Question: How did the percent of control (FP) turn out when `N#CC(C#N)=Cc1ccc(-c2cccc(C(=O)O)c2)o1` was run?
Answer: The percent of control (FP) was 102%.

Question: For `Cc1ccc2nc(/C(C#N)=C/c3ccc(-c4ccc(C(=O)OC(C)C)cc4)o3)[nH]c2c1`, which percent of control (FP) is on record?
Answer: Its percent of control (FP) is -57.6% (active).

Question: Which percent of control (FP) does the source give for `O=C(OCCN1CCCCC1)C1COc2ccccc2O1` (stereo not given) here?
Answer: The percent of control (FP) was 102%.

Question: Which percent of control (FP) does the source give for `CN(Cc1ccccc1)S(=O)(=O)c1ccc2c3c(cccc13)C(=O)N2` here?
Answer: Its percent of control (FP) is 104%.

Question: How did the percent of control (FP) turn out when `CC1CN(S(=O)(=O)c2ccc3c4c(cccc24)C(=O)N3)CC(C)O1` (stereo not given) was run?
Answer: The percent of control (FP) was 96.8%.

Question: How did the percent of control (FP) turn out when `Nc1ccc2c3c(cccc13)C(=O)NC2=O` was run?
Answer: Its percent of control (FP) is -7.99% (active).

Question: How did the percent of control (FP) turn out when `C#CCSc1c(CCCC)cnc2c1c(=O)n(C)c(=O)n2C` was run?
Answer: The percent of control (FP) was 106%.

Question: For `COC(CNC(=O)c1cn(C)c2ccc(S(=O)(=O)N3CCCC3)cc2c1=O)OC`, which percent of control (FP) is on record?
Answer: The percent of control (FP) was 106%.

Question: For `CCOc1ccc(/C(O)=C2/C(=O)C(=O)N(CCN3CCOCC3)C23C(=O)N(C)c2ccccc23)cc1` (stereo not given), which percent of control (FP) is on record?
Answer: Its percent of control (FP) is 107%.

Question: For `Cc1cc(Br)ccc1NC(=O)Cn1c2ccccc2c(=O)c2ccccc21`, which percent of control (FP) is on record?
Answer: Its percent of control (FP) is 99.8%.

Question: Which percent of control (FP) does the source give for `CCN1C(=O)c2cccc3c(S(=O)(=O)N4CCc5ccccc54)ccc1c23` here?
Answer: The percent of control (FP) was 101%.

Question: For `CCN1C(=O)c2cccc3c(S(=O)(=O)N4CCN(CCO)CC4)ccc1c23`, which percent of control (FP) is on record?
Answer: Its percent of control (FP) is 108%.

Question: How did the percent of control (FP) turn out when `CCN1C(=O)c2cccc3c(NC(=S)NC(=O)c4ccccc4)ccc1c23` was run?
Answer: Its percent of control (FP) is -23.8% (active).

Question: For `Cc1cc(C)n(C(=O)c2sccc2S(=O)(=O)N(C)c2ccc(C)c(Cl)c2)n1`, which percent of control (FP) is on record?
Answer: Its percent of control (FP) is 95.4%.

Question: `O=C(NCC(c1ccccc1Cl)N1CCCC1)c1cc(-c2ccccc2)on1` (stereo not given) was tested. Which percent of control (FP) did it give?
Answer: Its percent of control (FP) is 113%.
